## Ab-14 light chain CDR variants: yeast mating affinities

All variants were tested on one target, the spike HR2 peptide PDVDLGDISGINAS (SARS-CoV-2).

Parent: Ab-14, a human scFv built as VH, the linker GGGGSGGGGSGGGGS, VL. Only the CDRs of the light chain vary.
VH: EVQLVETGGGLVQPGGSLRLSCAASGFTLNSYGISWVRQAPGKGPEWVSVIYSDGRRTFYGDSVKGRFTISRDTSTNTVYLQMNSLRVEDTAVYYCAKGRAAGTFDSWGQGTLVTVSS
VL: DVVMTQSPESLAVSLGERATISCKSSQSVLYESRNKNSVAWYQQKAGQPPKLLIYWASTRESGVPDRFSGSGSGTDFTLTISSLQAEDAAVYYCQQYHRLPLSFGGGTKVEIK

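Phage display of a naive human antibody library on the peptide gave the parent. The variants were designed computationally from a first round of random CDR variants and then made and measured. Group labels follow the data file (Ctrl: baseline library sampled from a position-specific scoring matrix, with some repeated check sequences; En: ensemble of fine-tuned language models; GP: Gaussian process model; HC: hill climbing; Gen: genetic algorithm; Gibbs: Gibbs sampling; a sequence that several methods proposed may carry one label only). Affinity was read by AlphaSeq, a pooled yeast mating assay with surface-displayed partners. Binding brings cells together so that they mate, and sequencing counts the barcode pairs among the diploids. Scores were corrected for input abundance and mapped to Kd with protein pairs of known affinity run in the same pool. Mating was done six times.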

Variants are written as CDR1, CDR2 and CDR3 of the light chain (limits as in the source). Parent: KSSQSVLYESRNKNSVA, WASTRES, QQYHRLPLS.
Numbers give log10(Kd / nM), so 0 is 1 nM and 3 is 1 µM. Smaller is tighter.
Replicates are averaged; those with no signal do not enter the mean.
"no signal" means that the variant was in the library but no mating with the target was seen in any replicate; the authors take this as a sign of poor binding, and no number exists.
In the paper, a design with two or fewer of six values counts as a poor binder.
Of ten entries with the parent sequence, four were seen in most replicates (averages 0.34 to 2.37), three in one and three in none, so single entries are noisy.
Where one sequence has several entries in the source, the replicates are pooled.
Nonspecific signal, from three strains lacking the peptide, appeared in 4% of pairings of all light chain designs, centred on 2.64 (5% of these signals below 1.59); values are not corrected for it.
A sequence measured in both rounds can read differently, since the two assays cover different ranges.

CDR-L1 | CDR-L2 | CDR-L3 | group | log10 Kd (nM), mean | seen in
KLYQSWLYESRNKNSVA | NASTRES | QQYHRLPLS | GP_Gen | -0.10 | 6 of 6
TLSGPMLSESKNKNSVA | EFSTRGS | QQYHRLPLS | En_HC | 1.17 | 6 of 6
KSSQSVLYESRNKNSVA | AASMREH | QQYWRLPLS | Ctrl | 0.89 | 6 of 6
KVSQSYLYESRNKNNVA | NASTRES | QQYHRLPLS | GP_Gen | -0.41 | 6 of 6
HITMGMYVMGRHHSSIA | QAETRMQ | QQYDRLPLI | En_Gen | 1.27 | 6 of 6
RLTNEFFKEMERKNSVA | HTDQRCM | QQYFRLPLI | En_Gibbs | 0.93 | 6 of 6
KISQSVLFQSRNKNSVA | DASTRES | QQYHRLPLS | GP_HC | -0.23 | 6 of 6
KLPQSVLYESRNKNSVA | EASTREE | QQYHRLPLS | GP_Gen | -0.36 | 6 of 6
KLMEGWLYESRNKNSVA | NASKRLE | QQYHRLPLS | GP_Gibbs | 0.04 | 6 of 6
MIEIIHDGYDEMRSAIA | DTSLVRM | QQYYRLPLM | En_Gibbs | 0.32 | 1 of 6
KLQSVTGTEKVHGNNVA | EMETRER | QQYNRLPLA | En_Gen | 0.65 | 6 of 6
TISQMFLGELRNRNSVA | QASTRES | QSYDRLPLS | En_HC | 1.14 | 6 of 6
SLFEKEREELSVEDNIA | DGTEHMD | QQYFRLPLL | En_Gibbs | no signal | 0 of 6
MISQLYNMGQFAINSVA | QASIRND | QQYDRLPLM | En_Gen | 1.54 | 6 of 6
KMQQSGLMESRNVNSVA | HASTRLE | QQYHRLPLS | GP_Gibbs | 0.40 | 6 of 6
KHSQSVLYESRDKNSVA | MASTRES | QQYHRLPLS | Ctrl | 1.78 | 5 of 6
KIGMTLNQLQEKKNNVA | DLVAREN | QQYHRLPLS | En_Gen | 0.50 | 6 of 6
KLSQSVLYESRNKNSVA | DASTRES | QQYHRLPLS | Ctrl+GP_HC | -0.48 | 12 of 12
KLSSITGHMQVEKNNVA | EMETREK | QQYNRLPLS | En_Gen | 0.03 | 6 of 6
KSSQSRLYESRNKNDVA | WASTRES | QQYHRLPLS | Ctrl | 3.81 | 1 of 6
KFSQSVLYESRNKNSVA | WASTRES | QQYHRLPFS | Ctrl | 0.72 | 6 of 6
FLQAFGEESNRNSKNIA | SKDTRQV | QQYMRLPLS | En_Gibbs | 0.06 | 6 of 6
DSSQSELYESRNKNSVA | GASTRES | QQYHRLPLS | GP_HC | -0.02 | 6 of 6
KAPQSMWYESRNQNSVA | SASTRSQ | QQYHRLPLQ | GP_Gibbs | 0.28 | 6 of 6
TIAQSMLYMSNLKNSIA | QAETRES | QQYHRLPIS | En_HC | 1.07 | 6 of 6
MISQSFLIGSRAKNSVA | QTSTRES | QQYDRLPLM | En_HC | -0.39 | 6 of 6
KSCQAVNYESRNKNSVA | WASTRES | QQYHRLPLS | Ctrl | 0.77 | 6 of 6
MFSQLTYTGTRTRNAVA | QASTREN | QQYHHLPLS | En_HC | 0.84 | 6 of 6

Further variants, results first:

log10 Kd (nM), mean | seen in | CDR-L1 | CDR-L2 | CDR-L3 | group
-0.26 | 6 of 6 | KISQSVLYESRNKNSVA | DASTRYS | QQYHRLPLS | GP_Gen
-0.38 | 6 of 6 | KMEQSNGYESRNKNSVA | NASTRES | QQYWRLPLS | GP_Gibbs
0.35 | 6 of 6 | KIDISELGESVNKNSVA | NASTRME | QQYHRLPLS | GP_Gibbs
no signal | 0 of 6 | KSSISVLYESRNKNSVA | WASTRES | QQYHRLPLS | Ctrl
2.68 | 1 of 6 | KSSQSVLYESDNPNSVA | WASVRCS | QQYHRLPLS | Ctrl
1.62 | 5 of 6 | MITAMLRGVGRDKNSVA | NAQTRES | QHYHRLPLS | En_HC
0.93 | 6 of 6 | KFSQMVLTGMYVSNSVA | QMSTRVN | QQYHRLPLM | En_HC
no signal | 0 of 6 | NLGQKMSHEYEQRNSIA | DMTVREY | QHYSRIPLI | En_Gibbs
1.23 | 6 of 6 | GIQSQMDGTSAVKENIA | NEAERLE | QQYQRLPLT | En_Gibbs
0.05 | 6 of 6 | KLLQSVLYESRMKNSVA | HASTRED | QQYHRLPLS | GP_HC
0.00 | 6 of 6 | KQSQSVDFESRNKNSVA | DASTRES | QQYHRLPLS | GP_HC
0.18 | 6 of 6 | WLSMSVMLWSRNVNSVA | SASTREE | QQYHRLPLS | GP_Gibbs
1.46 | 2 of 6 | KFNMEVFGQNNNKYNIA | AAHQLEY | QTYHRLPLV | En_Gibbs
1.12 | 6 of 6 | HITYGMQVAGRHSKSIA | QAEERAS | QQYDRLPLI | En_Gen
no signal | 0 of 6 | KSSQSVLYFSRNKNSVA | WASTRES | QQYHRLPLS | Ctrl
1.57 | 1 of 6 | KSSQSVLYESRNKNSVA | RASTRES | QGYHRLPLS | Ctrl
1.15 | 6 of 6 | NISIEDVSEHNDANNVA | STDCRCD | QQYFMLPLM | En_Gibbs
1.85 | 6 of 6 | KSSQSVLYESRNWNSVA | WASTREA | QQYHRLPLS | Ctrl
0.28 | 6 of 6 | KSQQGVLYESRNKNSVA | GASQRES | QQYHRLPLS | GP_HC
0.09 | 6 of 6 | KSLQSELYESRNKNSVA | HASTREQ | QQYHRLPLS | GP_HC
-0.05 | 6 of 6 | KMMQSQLYEDRASNAVA | NASQRES | QQYHRLPLS | GP_Gibbs
0.27 | 6 of 6 | KLSMVQGHMMVSKNNVA | EMETRVN | QQYDRLPLS | En_Gen
0.32 | 6 of 6 | KFSQSVLYESRNKNSVA | WASTRES | QQYSRLPLS | Ctrl
0.69 | 6 of 6 | MVNGIMDHLSKQTNNVA | ETVTREE | QQYERLPLS | En_Gen
-0.10 | 6 of 6 | KLPQSMPYESRNKNSVA | NASTRES | QQYHRLPLS | GP_Gen
0.60 | 6 of 6 | KSPQSVLYDSRNKNSVA | HASTRES | QQYHRLPCS | Ctrl
1.12 | 6 of 6 | KQSQSVDYESRNKNSVA | MASTRES | QQYHRLPLS | GP_HC
0.98 | 6 of 6 | TISQMMQLFSQTINNVA | EVSTREE | QQYDRLPLM | En_Gen
0.10 | 6 of 6 | KFMQSMGYESRNKNSVA | DASTRSS | QQYHRLPLS | GP_Gibbs

From the AlphaSeq antibody data of Li et al. 2023 (doi:10.1038/s41467-023-39022-2), copy in the FLAb collection.